# AlphaSeq binding of Ab-91 heavy chain variants to a spike HR2 peptide

All variants were tested on one target, the spike HR2 peptide PDVDLGDISGINAS (SARS-CoV-2).

Each scFv is VL, a 15-residue (Gly4Ser)3 linker, VH, as in the parent Ab-91, and differs from it in the CDRs of the heavy chain only.
VL: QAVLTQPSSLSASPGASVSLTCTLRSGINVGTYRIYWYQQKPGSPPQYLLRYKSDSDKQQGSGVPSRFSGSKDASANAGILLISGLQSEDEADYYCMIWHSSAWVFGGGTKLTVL
VH: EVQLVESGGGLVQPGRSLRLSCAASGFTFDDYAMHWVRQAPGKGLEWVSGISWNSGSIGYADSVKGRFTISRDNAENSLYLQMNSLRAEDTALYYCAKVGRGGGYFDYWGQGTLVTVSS

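The parent was found by panning a naive human phage display library on the peptide. AAYL51 was designed without a model: most single CDR substitutions and a random sample of double and triple ones. AlphaSeq pools MATa yeast showing the antibodies with MATalpha yeast showing the peptide. Binding brings cells together so that they mate, and sequencing counts the barcode pairs among the diploids. A regression on co-assayed BCL2-family reference pairs converts the normalised counts of each replicate to an apparent Kd. There are three technical replicates.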

Variants are written as CDR1, CDR2 and CDR3 of the heavy chain (limits as in the source). Parent: GFTFDDYAMH, GISWNSGSIGYADSVK, VGRGGGYFDY. All variants listed here change S63 of the VH, counted from its first residue. Numbers give log10(Kd / nM), so 0 is 1 nM and 3 is 1 µM. Smaller is tighter. Replicates are averaged; those with no signal do not enter the mean. A pair that was not seen in that replicate is written "nd"; this usually means weak binding, but a binder can also be missed. Entries are sorted by rising average, undetected variants last.

Variant GFTFDDYAMH, GISWNSWSIGYADEVK, VGRGGGYFDT showed 0.65, 0.72, 0.11 (mean 0.49; controls 1 of 9).
Variant GFTFRDYAMH, GISWNSGSIGYADMVK, VGRGGGYFDG showed 0.80, 0.81, 0.04 (mean 0.55; controls 7 of 9).
Variant GFTFDDYAMH, GISWNSGSIGYADPVK, VGRGGGYFDY showed 1.65, 1.73, 0.83 (mean 1.40; controls 0 of 9).
Variant GFTFDDYAMH, GISWNSGSIGYADHVR, VGRGGYYFDY showed 1.87, 1.86, 1.85 (mean 1.86; controls 5 of 9).
Variant GFTFDDYAMH, GISWNSGSIGYSDDVK, VGREGGYFDY showed 2.53, 3.32, 1.66 (mean 2.50; controls 0 of 9).
Variant GFTFSDYAMH, GISWNSGSWGYADRVK, VGRGGGYFDY showed 2.71, 2.60, 2.24 (mean 2.52; controls 7 of 9).
Variant GFTFDDYAMH, GISWNSGSIGEADAVK, VGRGGGYFDY showed 2.95, nd, nd (controls 0 of 9).
Variant GFTFDDYAMH, GISWQSGSIGYADKVK, VGDGGGYFDY showed 3.21, 3.43, 2.94 (mean 3.19; controls 3 of 9).
Variant GFTFDDYAMH, GITWNSGSIGYADWVK, VGRGGGYFDY showed 3.37, 3.41, nd (mean 3.39; controls 0 of 9).
Variant GFTFDDYAMH, GISWASGSIGYADGVK, RGRGGGYFDY showed 3.74, nd, nd (controls 0 of 9).
Variant GFTFDDYAMH, GISWVSGSIGYADGVK, VGRGGGYFDY showed nd, 4.24, nd (controls 0 of 9).
Variant GFTFDDYALH, GISWMSGSIGYADPVK, VGRGGGYFDY showed 4.59, 4.40, 3.86 (mean 4.28; controls 5 of 9).
Variant GFTFDDYAMH, GISWNSGSIGYADGVK, DGRGGGYFDC showed nd, nd, 4.45 (controls 1 of 9).
Variant GFTFDDYAMH, GISWNSGSIGYADDVK, VGRGPGYFDY showed 4.65, nd, nd (controls 1 of 9).
Variant GFTFDDYAMH, GISWNYGSIGYADTVK, MGRGGGYFDY showed 4.90, 4.45, nd (mean 4.67; controls 0 of 9).
Variant GFTFDDYAMH, GISWNSGSIGWADDVK, VTRGGGYFDY showed 4.26, 4.73, 5.21 (mean 4.73; controls 6 of 9).
Variant NFTFDDYAMH, GISWNSGSIGYADFVK, VGRGFGYFDY showed 4.74, nd, nd (controls 1 of 9).
Variant GFTFLDYDMH, GISWNSGSIGYADPVK, VGRGGGYFDY showed 5.52, 4.49, nd (mean 5.00; controls 5 of 9).
Variant GFTFDDYAMH, GESWNSGSIGYADRVK, VGRGGPYFDY showed 5.40, nd, 4.72 (mean 5.06; controls 3 of 9).
Variant GFTFDDYAMH, GIHWNSGSIGYADMVK, VGGGGGYFDY showed 5.33, nd, nd (controls 3 of 9).
Variant GFTFDDYAMH, GISWNSGPIGIADCVK, VGRGGGYFDY showed 5.35, 5.36, nd (mean 5.36; controls 2 of 9).
Variant GFTFDDYAMW, GISWNSGSIGYADLVK, VGRGGKYFDY showed nd, 5.47, nd (controls 0 of 9).
Variant VFTFDDYAMH, GISWNSGSIGYADAVV, VGRGGGYFDY showed nd, nd, nd (controls 0 of 9).
Variant GFTFDDYAMH, GISWNSGHIGYADGVK, VGRMGGYFDY showed nd, nd, nd (controls 1 of 9).
Variant GFTFDDPAMH, GISWNSGCIGYADEVK, VGRGGGYFDY showed nd, nd, nd (controls 1 of 9).
Variant GFTFDDYAMH, GISWNSGSIGYADKVK, VPRGGGFFDY showed nd, nd, nd (controls 4 of 9).
Variant GFTFDDYAMH, GISWAFGSIGYADAVK, VGRGGGYFDY showed nd, nd, nd (controls 0 of 9).
Variant GFTFDDYAMH, GISWNSGSIGSADPVK, VGRGGGYFCY showed nd, nd, nd (controls 1 of 9).
Variant GFTFDDYWMH, GISWNSGSIGYADNVK, VGRGGGYFDY showed nd, nd, nd (controls 1 of 9).
Variant GFTFDDYAMH, GISWNSGSIGYADKVK, VGRGELYFDY showed nd, nd, nd (controls 0 of 9).
Variant GFTFDDYAMH, GISWNSGSIGYLDKVK, VGRGGGPFDY showed nd, nd, nd (controls 1 of 9).
Variant GFQFDDYAMH, GISWNSTSIGYADWVK, VGRGGGYFDY showed nd, nd, nd (controls 1 of 9).
Variant GFTFDDRAMH, GISWNSGSIGYADRVK, VGRGGGYFDY showed nd, nd, nd (controls 1 of 9).
Variant GMTFDDYAMH, GISWNSGSIGYARAVK, VGRGGGYFDY showed nd, nd, nd (controls 1 of 9).
Variant GFTFDDYAMH, GISWNSGRIGYADKVK, VGRGCGYFDY showed nd, nd, nd (controls 1 of 9).
Variant GFTFWDYAMH, GISWNSGSPGYADAVK, VGRGGGYFDY showed nd, nd, nd (controls 0 of 9).
Variant GFTFDDYAMH, GISWNYGCIGYADLVK, VGRGGGYFDY showed nd, nd, nd (controls 0 of 9).

The last 2 entries again:

CDR-H1	CDR-H2	CDR-H3	log10 Kd, replicates	mean, log10 nM	control signals
GFTFWDYAMH	GISWNSGSPGYADAVK	VGRGGGYFDY	nd, nd, nd	nd	0 of 9
GFTFDDYAMH	GISWNYGCIGYADLVK	VGRGGGYFDY	nd, nd, nd	nd	0 of 9

Nonspecific signal, from three strains lacking the peptide, appeared in 21% of pairings of library AAYL51, centred on 4.54 (5% of these signals below 3.26); values are not corrected for it. For each scFv, signals with the empty controls are counted beside the result. For reference, the parent read 1.86 as the reference entry and 0.88 as a member of this library.

Source: Engelhart et al. 2022 (doi:10.1038/s41597-022-01779-4), MIT Lincoln Laboratory and A-Alpha Bio; data file from the FLAb repository.